Measurements published in ChEMBL document CHEMBL4177633, “Novel analogs of PSNCBAM-1 as allosteric modulators of cannabinoid CB1 receptor” (Bioorg Med Chem, 2017).

Sequences of proteins named here, by UniProt entry; tags and fusion partners are left off.
UniProt P21554, whole entry: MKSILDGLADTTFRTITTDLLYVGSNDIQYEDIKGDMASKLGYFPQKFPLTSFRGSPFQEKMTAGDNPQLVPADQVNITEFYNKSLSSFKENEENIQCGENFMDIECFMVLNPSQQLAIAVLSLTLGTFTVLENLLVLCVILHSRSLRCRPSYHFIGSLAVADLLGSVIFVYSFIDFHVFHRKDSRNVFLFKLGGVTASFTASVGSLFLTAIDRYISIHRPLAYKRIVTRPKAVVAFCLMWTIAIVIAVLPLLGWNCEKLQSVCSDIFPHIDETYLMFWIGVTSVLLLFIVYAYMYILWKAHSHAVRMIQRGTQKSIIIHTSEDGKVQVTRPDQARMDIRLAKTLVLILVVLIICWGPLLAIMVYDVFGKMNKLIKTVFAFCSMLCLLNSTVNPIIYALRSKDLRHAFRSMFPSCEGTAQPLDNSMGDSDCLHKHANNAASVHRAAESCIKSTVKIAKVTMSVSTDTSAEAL

Experiments:
[1] = target: T1, Cannabinoid receptor 1 (Homo sapiens, UniProt P21554); experiment: Positive allosteric modulation of human CB1 receptor expressed in CHO-K1 cell membranes assessed as induction of [3H]CP55,940 binding after 1.5 hrs by liquid scintillation counting assay; type: functional
[2] = target: T1, Cannabinoid receptor 1; experiment: Negative allosteric modulation of human CB1 receptor expressed in HEK293 cells assessed as inhibition of 33 nM CP55,940-induced SRE transcriptional activity after 5 hrs by luciferase reporter gene assay; type: functional, cell-based
Method in brief: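 HEK293 cells transiently co-transfected with hCB1R (5 ng/well) and pGL4.33 luc2P/SRE reporter (100 ng/well) by lipofection, seeded at 60,000 cells/well. After 5 h, switched to 1% FBS/DMEM overnight. Ligands added for 5 h at 37 °C in serum-free DMEM. Cells lysed 10 min at room temperature, luciferin injected, luminescence read. Sigmoidal nonlinear regression fit; mean with 95% CI, n = 3.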

A pEC50 [1] of 6.57 and a pIC50 [2] of 6.64 were found for `O=C(Nc1ccc(Cl)cc1)Nc1cccc(-c2cccc(N3CCCC3)n2)c1` in this work.

pEC50, pIC50: −log10 of the molar value.
